Measured values reported in patent US20150272863A1, “H3 ANTAGONIST BY-PRODUCT, ITS MANUFACTURE, AND METHOD OF USING BY-PRODUCT TO REDUCE PIGMENTATION IN SKIN” (Active Concepts, LLC, priority 2014, published 2015).

System: mouse melanoma cells (B16F10 cell line)
Test: Melanin inhibition assay
Assay type: cell-based
Conditions: found through experimentation; H3 antagonists
Protocol: The assays utilized mouse melanoma cells (B16F10 cell line) which are very efficient at producing melanin. Various inhibitors and enhancers of melanin synthesis were added to the cultured cells along with experimental samples.
The B16F10 murine melanocytes were seeded into 24-well tissue culture plates and allowed to grow to confluency in complete DMEM. Solutions of H3 antagonists, Arbutin, alpha-Melanocyte Stimulating Hormone (a-MSH), and AA2G were prepared in Complete DMEM. Complete Dulbeco's Modified Eagle Media (DMEM) was used as the untreated control. Additionally, the individual components of the H3 antagonists, Yeast Peptide and Plant Extract, were also analyzed for melanogenic effects. Cells were treated for 72 hours.
For the inhibition assay, the media was removed from the wells and the monolayers were washed with phosphate buffered saline (PBS). NaOH was added to each well and 100 μL of each solution were added to a 96-well plate in duplicate. The plate was measured by optical density readings at 400 nm.
As discussed above, skin pigmentation is determined by the amount of melanin in the skin which is produced by dermal melanocytes. […]

N/C(=N/CCc1ccc(I)cc1)SCCCc1cnc[nH]1 [lodophenpropit]
suitability to reduce or eliminate pigmentation in a users skin: suitable for use as a by-product in cosmetics to reduce or eliminate pigmentation
